Data reported in ChEMBL document CHEMBL2086363, “Lipophilic Isosteres of a π-π Stacking Interaction: New Inhibitors of the Bcl-2-Bak Protein-Protein Interaction” (ACS Med Chem Lett, 2012).

By UniProt entry, the sequences of proteins in these tests, tags left out.
UniProt Q07820, whole entry: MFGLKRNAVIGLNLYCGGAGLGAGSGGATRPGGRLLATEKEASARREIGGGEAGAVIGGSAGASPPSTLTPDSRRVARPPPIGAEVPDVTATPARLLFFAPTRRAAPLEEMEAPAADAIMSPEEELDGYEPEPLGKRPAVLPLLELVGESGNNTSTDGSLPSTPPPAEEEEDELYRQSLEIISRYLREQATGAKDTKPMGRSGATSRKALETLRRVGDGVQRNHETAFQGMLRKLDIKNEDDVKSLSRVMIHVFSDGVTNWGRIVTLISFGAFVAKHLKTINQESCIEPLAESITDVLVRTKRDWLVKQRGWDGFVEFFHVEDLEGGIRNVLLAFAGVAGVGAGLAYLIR

Biological target: MCL1-BAK1 complex (Homo sapiens, UniProt Q07820)
Assay: Inhibition of Mcl1-BAK interaction
Format: protein-complex assay

CN(C)CC[C@H](CSc1ccccc1)Nc1ccc(S(=O)(=O)NC(=O)c2ccc(N3CCN(Cc4ccccc4-c4ccc(Cl)cc4)CC3)cc2)cc1[N+](=O)[O-] [ABT 737]
IC50: > 50 µM
